From PubChem BioAssay AID588458 (Sanford-Burnham Center for Chemical Genomics, 2011)
Only a part is listed here, and it is no random draw. Active and inactive are the calls of the source. Cut-off read from the data, not from the text of the source: active = inhibition above about 50%; inactive = the rest.

By UniProt entry, the sequences of proteins in these tests, tags left out. Where a name states a change or a piece, a line headed by the entry shows the natural chain unless it says otherwise.
UniProt P26358: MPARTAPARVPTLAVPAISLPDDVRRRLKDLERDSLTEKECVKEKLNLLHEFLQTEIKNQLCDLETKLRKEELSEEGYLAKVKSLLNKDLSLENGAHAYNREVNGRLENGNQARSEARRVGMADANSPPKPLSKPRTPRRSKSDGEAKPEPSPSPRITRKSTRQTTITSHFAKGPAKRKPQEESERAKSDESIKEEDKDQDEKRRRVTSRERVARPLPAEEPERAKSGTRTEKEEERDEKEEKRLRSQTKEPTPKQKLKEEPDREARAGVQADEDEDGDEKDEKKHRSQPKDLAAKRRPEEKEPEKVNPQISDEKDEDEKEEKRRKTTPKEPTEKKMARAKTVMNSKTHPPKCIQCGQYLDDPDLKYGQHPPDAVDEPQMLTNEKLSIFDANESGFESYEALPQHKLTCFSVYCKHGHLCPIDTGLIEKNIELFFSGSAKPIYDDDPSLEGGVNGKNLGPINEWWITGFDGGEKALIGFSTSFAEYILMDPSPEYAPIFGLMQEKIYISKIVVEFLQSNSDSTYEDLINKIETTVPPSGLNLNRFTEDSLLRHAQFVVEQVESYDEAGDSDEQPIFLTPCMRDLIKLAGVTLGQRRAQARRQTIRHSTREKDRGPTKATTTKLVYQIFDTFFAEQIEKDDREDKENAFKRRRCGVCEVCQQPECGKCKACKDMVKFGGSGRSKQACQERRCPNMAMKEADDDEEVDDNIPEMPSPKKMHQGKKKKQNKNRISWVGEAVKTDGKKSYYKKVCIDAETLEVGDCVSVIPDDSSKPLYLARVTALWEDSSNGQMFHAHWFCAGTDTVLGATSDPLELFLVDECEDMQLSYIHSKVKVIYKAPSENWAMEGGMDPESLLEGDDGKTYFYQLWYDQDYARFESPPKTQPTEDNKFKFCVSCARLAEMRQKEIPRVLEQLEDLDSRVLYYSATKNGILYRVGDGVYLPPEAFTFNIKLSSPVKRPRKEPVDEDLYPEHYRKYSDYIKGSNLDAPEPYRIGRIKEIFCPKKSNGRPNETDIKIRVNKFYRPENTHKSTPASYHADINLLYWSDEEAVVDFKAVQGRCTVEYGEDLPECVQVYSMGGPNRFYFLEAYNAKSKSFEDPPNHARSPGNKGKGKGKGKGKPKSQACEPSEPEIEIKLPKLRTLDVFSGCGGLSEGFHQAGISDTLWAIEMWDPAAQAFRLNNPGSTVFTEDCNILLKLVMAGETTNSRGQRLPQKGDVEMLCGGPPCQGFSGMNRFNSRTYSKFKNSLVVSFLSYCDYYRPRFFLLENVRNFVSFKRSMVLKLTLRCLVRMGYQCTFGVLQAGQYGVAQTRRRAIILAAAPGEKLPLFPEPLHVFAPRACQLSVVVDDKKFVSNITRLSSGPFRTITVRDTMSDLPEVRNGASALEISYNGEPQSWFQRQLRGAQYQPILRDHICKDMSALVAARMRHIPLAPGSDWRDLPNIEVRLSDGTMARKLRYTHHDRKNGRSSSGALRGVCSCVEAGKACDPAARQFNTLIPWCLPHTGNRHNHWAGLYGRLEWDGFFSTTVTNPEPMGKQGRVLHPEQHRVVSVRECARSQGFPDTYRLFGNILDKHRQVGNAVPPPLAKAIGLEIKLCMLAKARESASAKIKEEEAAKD

What follows are compounds tested against DNA (cytosine-5)-methyltransferase 1 (Homo sapiens) (UniProt P26358) (assay: human DNMT1 methyltransferase inhibitors, primary screen, biochemical, molecular beacon, fluorescence, HinP1I cleavage, uHTS (AID 588458)). Conditions: at 10 µM, hits give high values.
With `COc1ccccc1CNC(=O)COC(=O)C(O)(c1ccccc1)c1ccccc1` the inhibition (reported as % activation of signal) was inactive: -0.66%. `Clc1n[nH]nc1-c1nn[nH][15n]1` was tested, and the inhibition (reported as % activation of signal) was inactive: 5.27%. `O=P1(N(CCCl)CCCl)NCCC(C(F)(F)F)O1` (configuration not stated) was tested, and the inhibition (reported as % activation of signal) was inactive: -0.97%. For `CC(C)(C)C(=O)NC(Sc1ncccn1)C(Cl)(Cl)Cl` (configuration not stated), the inhibition (reported as % activation of signal) was inactive: -0.11%. With `CCOP(=O)(Nc1ccc(C)cn1)OCC` the inhibition (reported as % activation of signal) was inactive: 0.65%. `CN(CCCl)Cc1cc(Cl)c(NC2=NCCN2)c(Cl)c1` was tested, and the inhibition (reported as % activation of signal) was inactive: -7.65%. With `CCC1=CC2Cc3nc4ccc(Cl)cc4c(N)c3C(C1)C2` (configuration not stated) the inhibition (reported as % activation of signal) was inactive: 7.43%. With `O=P1(Nc2ccccn2)COc2ccccc2OC1` the inhibition (reported as % activation of signal) was inactive: 13.2%. In the case of `CCOP(=O)(NC(=NC(C)c1ccccc1)NC(C)c1ccccc1)OCC` (configuration not stated), the inhibition (reported as % activation of signal) is reported as inactive: -0.92%. With `COc1cc(C2NCCC3(OCCO3)C2(C)C)cc(OC)c1OC` (configuration not stated) the inhibition (reported as % activation of signal) was inactive: 8.15%. `CCOP(=O)(Nc1cccc2ccccc12)OCC` was tested, and the inhibition (reported as % activation of signal) was inactive: -0.17%. In the case of `CCCOP(=S)(Nc1nc(N)cc(=O)[nH]1)OCCC`, the inhibition (reported as % activation of signal) is reported as inactive: -2.88%. `Cc1ccc(NCCc2c([N+](=O)[O-])cc([N+](=O)[O-])cc2[N+](=O)[O-])cc1` was tested, and the inhibition (reported as % activation of signal) was inactive: -12.8%. `Nc1cccc2c([As](=O)(O)O)cccc12` was tested, and the inhibition (reported as % activation of signal) was active: 75.6%. For `Cc1cccc(OCC(=O)OC2CN3CCC2CC3)c1` (configuration not stated), the inhibition (reported as % activation of signal) was inactive: 1.41%. For `O=[As](O)(c1cccc(O)c1)c1cccc(O)c1`, the inhibition (reported as % activation of signal) was inactive: 2.68%. For `O=[As](O)(O)c1cccnc1`, the inhibition (reported as % activation of signal) was inactive: -0.56%. `COc1cc(C(=O)NCC2(N3CCOCC3)CCCCC2)cc(Cl)c1OC(C)C` was tested, and the inhibition (reported as % activation of signal) was inactive: 3.91%. For `CS(=O)(=O)c1ccc(Cl)c(NC(=O)COC(=O)C(O)(c2ccccc2)c2ccccc2)c1`, the inhibition (reported as % activation of signal) was inactive: -0.93%. With `O=C(OC1CN2CCC1CC2)c1ccc(Cl)cc1` (configuration not stated) the inhibition (reported as % activation of signal) was inactive: 0.33%. `O=[N+]([O-])c1ccc2c(c1)nnn2O` was tested, and the inhibition (reported as % activation of signal) was inactive: 3.25%. With `CN(C)C(=O)c1cc([N+](=O)[O-])cc2c1-c1c(cc([N+](=O)[O-])cc1[N+](=O)[O-])C2=O` the inhibition (reported as % activation of signal) was inactive: 3.48%. With `CN(C(=O)Cc1ccc(Cl)c(Cl)c1)[C@H]1CC[C@@]2(CCCO2)C[C@@H]1N1CCCC1` the inhibition (reported as % activation of signal) was inactive: -2.21%. For `N#CCCN(C(=O)COC(=O)C(O)(c1ccccc1)c1ccccc1)c1ccc(F)cc1`, the inhibition (reported as % activation of signal) was inactive: 1.93%. In the case of `CCOP1(=S)c2c(C)nn(CCC#N)c2N=C(c2ccc(F)cc2)N1C` (configuration not stated), the inhibition (reported as % activation of signal) is reported as inactive: 1.01%. With `CN(C(=O)Cc1ccccc1)[C@@H]1CC[C@]2(CCCO2)C[C@H]1N1CCCC1` the inhibition (reported as % activation of signal) was inactive: 1.55%. With `NC(=O)Nc1ccc([As](=O)(O)O)cc1` the inhibition (reported as % activation of signal) was inactive: 1.86%.
